According to ChEMBL document CHEMBL4020839, “Class I HDAC Inhibitors Display Different Antitumor Mechanism in Leukemia and Prostatic Cancer Cells Depending on Their p53 Status” (J Med Chem, 2018):
Activity calls are given as the source filed them. No cut-off for these calls is given here.

Experiments:
[1] = system: MV4-11; assay: Antiproliferative activity against human MV4-11 cells after 48 hrs by CellTiter-Blue assay; type: functional, cell-based; conditions: MV4-11, 48 h
[2] = system: Histone deacetylase 6 (Homo sapiens); conditions: 0.25 to 2 uM
[3] = system: PC-3; assay: Antiproliferative activity against human PC3 cells after 48 hrs by CellTiter-Blue assay; type: functional, cell-based; conditions: PC-3, 48 h
[4] = system: HEK293; assay: Antiproliferative activity against HEK293 cells after 48 hrs by CellTiter-Blue assay; type: ADME, cell-based; conditions: Homo sapiens, HEK293, 48 h

Row | SMILES | EC50 [1] [nM] | inhibition [2] | EC50 [3] [nM] | EC50 [4] [nM]
1 | CCNNC(=O)c1ccc(CNC(=O)[C@H](Cc2c[nH]c3ccccc23)NC(=O)c2ccc(OC)cc2)cc1 | 658 |  |  | 
2 | CCCNNC(=O)CCCCCCNC(=O)[C@H](Cc1c[nH]c2ccccc12)NC(=O)c1ccc(OC)cc1 | 653 |  |  | 
3 | CCCNNC(=O)CCCCCCCNC(=O)[C@H](Cc1c[nH]c2ccccc12)NC(=O)c1ccc(OC)cc1 | 1690 |  |  | 
4 | CCCNNC(=O)CCCCCNC(=O)[C@H](Cc1c[nH]c2ccccc12)NC(=O)c1ccc(OC)cc1 | 1250 |  |  | 

The next lines start with results.

Row | EC50 [1] [nM] | inhibition [2] | EC50 [3] [nM] | SMILES | EC50 [4] [nM]
5 | 558 |  |  | CCCCCNNC(=O)c1ccc(CNC(=O)[C@H](Cc2c[nH]c3ccccc23)NC(=O)c2ccc(OC)cc2)cc1 | 
6 | 642 |  |  | CCCCNNC(=O)c1ccc(CNC(=O)[C@H](Cc2c[nH]c3ccccc23)NC(=O)c2ccc(OC)cc2)cc1 | 
7 | 34.7 | Active | 351 | CCCNNC(=O)c1ccc(NC(=O)[C@H](Cc2c[nH]c3ccccc23)NC(=O)c2ccc(OC)cc2)cc1 | 11000
